Where a name gives a salt, the structure may show the parent alone.
Columns and labels:
[1] = system: Human Gamma Globulin (HGG), GLOBUCEL®; assay: Viscosity of aqueous solutions of Human Gamma Globulin (Cambridge VISCOlab5000 or DV2T cone and plate viscometer)
antigen = assay: Trastuzumab-Specific Sandwich ELISA assay (antigen binding); conditions: after storage for 90 days at 4° C.; formulated with tryptophan and nicotinic acid (acid form)
Description: Samples of Trastuzumab were prepared as described above. […] (Table 34).

| Molecule | Viscosity (cP) @ 25° C. ([1]; HGG 210 mg/mL, excipient 10 mg/mL (30 mM), 25 mM citrate buffer pH 6.0) | Viscosity, cP ([1]; HGG 220 mg/mL, excipient 10 mg/mL, citrate buffer pH 6.0, 25° C.) | antigen binding (antigen) |
| --- | --- | --- | --- |
| Cc1ncc(C[n+]2csc(CCO)c2C)c(N)n1 [Thiamine-HCl] | 102 cP | 102 cP |  |
| Trastuzumab: Commercially obtained Trastuzumab, HERCEPTIN®, dialyzed against 25 mM phosphate buffer, pH 6.0 |  |  | did not alter |
